The source of these data is paper PMC6150300.

The target of the test is Dps protein of Escherichia coli (Escherichia coli) (UniProt P0ABT2). The experiment in a line: SEC; as a3, but incubated 30 min at room temperature with 1 mM Mohr's salt. Background: SEC sorts molecules by how far they enter the pores of the column.

On to “Dps protein of Escherichia coli (from UniProt P0ABT2 1-163) (natural protein)”, for which the stoichiometry N is 12.

The term stoichiometry N denotes a count of units in the complex or per binding partner.
